From patent US20240400635A1

Protein sequences, listed by entry. Tags and fused reporters are not part of them. Residues count along the entry.
UniProt P43220, 24-463: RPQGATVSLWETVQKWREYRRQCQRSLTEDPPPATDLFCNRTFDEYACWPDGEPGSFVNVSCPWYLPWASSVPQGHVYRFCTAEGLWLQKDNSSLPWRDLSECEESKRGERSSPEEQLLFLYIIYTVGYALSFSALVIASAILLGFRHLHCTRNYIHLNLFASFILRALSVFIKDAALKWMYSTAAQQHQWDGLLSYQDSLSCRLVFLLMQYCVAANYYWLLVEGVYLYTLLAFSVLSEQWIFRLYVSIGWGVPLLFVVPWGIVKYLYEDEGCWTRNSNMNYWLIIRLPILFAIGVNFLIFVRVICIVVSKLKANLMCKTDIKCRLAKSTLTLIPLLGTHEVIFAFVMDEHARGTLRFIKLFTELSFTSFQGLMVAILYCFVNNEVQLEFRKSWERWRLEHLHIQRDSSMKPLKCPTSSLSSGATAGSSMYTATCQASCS

Target: human GLP-1 receptor (human) (UniProt P43220)
Test: cell-based or functional assay

GLP-1 receptor potency [EC50] pM 0% HSA: 5.6 pM | GLP-1 receptor potency [EC50] pM 1% HSA: 170 pM
Substance: N-epsilon26-[2-(2-[2-(2-[2-(2-[4-(17-Carboxyheptadecanoylamino)-4(S)-carboxybutyrylamino]ethoxy)ethoxy]acetylamino)ethoxy]ethoxy)acetyl][Aib8,Arg34]GLP-1-(7-37)peptide
